Test results: patent US6521594B1, “Method and composition for treating thrombosis” (La Jolla Cancer Research Foundation, priority 1990, dated 2003)

The chains behind the UniProt entries cited, without tags or fusion partners. Residues count along the entry.
UniProt P05106, 27-788 limits assumed: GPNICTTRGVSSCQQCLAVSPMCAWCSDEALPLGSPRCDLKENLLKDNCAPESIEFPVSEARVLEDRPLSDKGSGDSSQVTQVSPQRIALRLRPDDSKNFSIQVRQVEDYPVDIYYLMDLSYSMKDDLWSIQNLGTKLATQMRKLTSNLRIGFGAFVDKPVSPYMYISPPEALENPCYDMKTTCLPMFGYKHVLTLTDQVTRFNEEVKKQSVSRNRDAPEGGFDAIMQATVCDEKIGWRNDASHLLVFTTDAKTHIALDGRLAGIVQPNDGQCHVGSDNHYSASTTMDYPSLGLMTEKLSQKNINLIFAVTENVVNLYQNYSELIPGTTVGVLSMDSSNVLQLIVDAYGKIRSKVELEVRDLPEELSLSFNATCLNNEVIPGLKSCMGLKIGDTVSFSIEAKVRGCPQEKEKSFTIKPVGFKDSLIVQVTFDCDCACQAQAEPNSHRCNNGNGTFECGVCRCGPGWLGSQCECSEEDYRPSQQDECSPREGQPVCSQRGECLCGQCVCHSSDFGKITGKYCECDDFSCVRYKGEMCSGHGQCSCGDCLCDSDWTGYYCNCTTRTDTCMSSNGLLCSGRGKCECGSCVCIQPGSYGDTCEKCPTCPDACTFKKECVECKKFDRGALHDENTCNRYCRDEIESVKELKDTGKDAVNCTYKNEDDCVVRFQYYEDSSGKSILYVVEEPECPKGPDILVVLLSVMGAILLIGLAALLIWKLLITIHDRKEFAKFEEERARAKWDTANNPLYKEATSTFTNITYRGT
UniProt P08514, 32-887 limits assumed: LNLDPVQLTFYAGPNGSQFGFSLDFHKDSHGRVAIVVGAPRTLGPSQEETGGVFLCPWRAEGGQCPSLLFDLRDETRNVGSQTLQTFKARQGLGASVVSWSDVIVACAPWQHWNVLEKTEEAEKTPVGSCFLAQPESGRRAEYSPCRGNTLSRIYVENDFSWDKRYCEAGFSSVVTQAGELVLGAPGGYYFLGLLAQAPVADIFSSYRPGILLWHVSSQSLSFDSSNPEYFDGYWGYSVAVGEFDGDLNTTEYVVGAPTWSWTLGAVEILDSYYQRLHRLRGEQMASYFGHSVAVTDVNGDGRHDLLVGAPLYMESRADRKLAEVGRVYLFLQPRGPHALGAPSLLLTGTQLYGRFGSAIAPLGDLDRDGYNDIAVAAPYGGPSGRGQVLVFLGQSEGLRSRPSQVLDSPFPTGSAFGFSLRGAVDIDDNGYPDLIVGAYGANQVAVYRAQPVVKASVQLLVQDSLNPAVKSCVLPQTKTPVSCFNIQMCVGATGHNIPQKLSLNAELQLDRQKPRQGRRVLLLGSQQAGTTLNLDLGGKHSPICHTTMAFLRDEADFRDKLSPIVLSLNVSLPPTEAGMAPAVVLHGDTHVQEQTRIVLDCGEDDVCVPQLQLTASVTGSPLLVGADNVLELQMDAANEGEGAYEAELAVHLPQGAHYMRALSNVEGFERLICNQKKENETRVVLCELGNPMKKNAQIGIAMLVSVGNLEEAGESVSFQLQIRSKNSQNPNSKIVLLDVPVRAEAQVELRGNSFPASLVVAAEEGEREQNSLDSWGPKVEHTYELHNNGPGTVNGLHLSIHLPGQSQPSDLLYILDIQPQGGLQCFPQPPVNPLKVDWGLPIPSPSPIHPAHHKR
UniProt P08514, 891-1039 limits assumed: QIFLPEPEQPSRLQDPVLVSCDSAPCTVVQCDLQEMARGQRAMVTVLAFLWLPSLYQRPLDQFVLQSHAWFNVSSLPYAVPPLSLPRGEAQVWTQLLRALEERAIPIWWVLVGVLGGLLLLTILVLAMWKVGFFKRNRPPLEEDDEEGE
UniProt P08648, 895-1049 limits assumed: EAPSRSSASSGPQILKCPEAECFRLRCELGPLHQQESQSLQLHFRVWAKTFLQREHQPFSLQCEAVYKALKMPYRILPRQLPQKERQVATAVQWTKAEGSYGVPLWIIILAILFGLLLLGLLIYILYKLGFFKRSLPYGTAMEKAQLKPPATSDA
UniProt P08648, 42-894 limits assumed: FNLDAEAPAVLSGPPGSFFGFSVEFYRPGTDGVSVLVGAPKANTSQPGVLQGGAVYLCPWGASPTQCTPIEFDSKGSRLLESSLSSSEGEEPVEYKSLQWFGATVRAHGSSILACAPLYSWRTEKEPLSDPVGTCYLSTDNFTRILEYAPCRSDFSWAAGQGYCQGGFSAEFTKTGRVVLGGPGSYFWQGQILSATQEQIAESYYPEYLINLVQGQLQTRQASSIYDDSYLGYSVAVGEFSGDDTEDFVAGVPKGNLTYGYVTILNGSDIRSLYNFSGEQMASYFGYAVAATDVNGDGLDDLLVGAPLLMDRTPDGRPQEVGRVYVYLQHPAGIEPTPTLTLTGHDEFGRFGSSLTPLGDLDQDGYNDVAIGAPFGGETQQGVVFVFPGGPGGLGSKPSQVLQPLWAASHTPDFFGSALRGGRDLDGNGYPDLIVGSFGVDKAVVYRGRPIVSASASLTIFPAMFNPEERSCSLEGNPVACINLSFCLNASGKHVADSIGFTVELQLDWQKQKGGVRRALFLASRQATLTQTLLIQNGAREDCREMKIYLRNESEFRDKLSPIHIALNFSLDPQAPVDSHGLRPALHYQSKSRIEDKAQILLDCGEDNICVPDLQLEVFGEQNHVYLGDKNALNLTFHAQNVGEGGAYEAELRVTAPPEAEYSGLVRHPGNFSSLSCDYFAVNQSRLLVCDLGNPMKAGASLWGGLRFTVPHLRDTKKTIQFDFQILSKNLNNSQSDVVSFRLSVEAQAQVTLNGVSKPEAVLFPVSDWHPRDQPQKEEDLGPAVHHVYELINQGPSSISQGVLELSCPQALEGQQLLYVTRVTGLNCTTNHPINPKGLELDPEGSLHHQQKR

Tests used:
[1] = target: T1, αIIbβ3 (Homo sapiens, UniProt P05106+P08514); assay: αIIbβ3 ELISA IC50 (μM)
T1 construct: Platelet glycoprotein IIb/IIIa was purified from outdated human platelets; from tissue; host or cells: outdated human platelets
Source text: Table printed on a drawing sheet, FIG. 22
Title: Modifications of Ac-CNPRGD(Y-OMe)RC-NH2
(§1) Head of the field: αIIbβ3 ELISA IC50 (μM)
The patent's description of the figure: FIG. 22 (SEQ ID NOS. 3, 160-163, 2 and 164, respectively) is a Table showing the effect of modifying Ac-CNPRGD(Y—Me)RC-NH2 at position −3 (as defined, infra). […]
First copying reader's note: Underlining in the printed sequences marks the cyclic part; the footnote for the raised a at 'Peptide' is not printed on the sheet, and the D in D-Pen is printed as a small capital.
(§2) Where the first naming reader finds the target: head: αIIbβ3 ELISA IC50 (μM)

[2] = target: T2, α5β1 (Homo sapiens, UniProt P05556+P08648); assay: α5β1 ELISA IC50 (μM)
T2 construct: Fibronectin receptor (Fn-R) was similarly purified from (100 mM) octyl glucoside-extracted human placenta; from tissue; host or cells: human placenta
Source text: (§3) Table printed on a drawing sheet, FIG. 19
(§4) Title: Modifications of R(Pmc)GHRGD(Y-OMe)RCR
(§5) Head of the field: α5β1 ELISA IC50 (μM)
(§6) The patent's description of the figure: FIG. 19 (SEQ ID NOS. 1, 147-149, 76 and 68, respectively) is a Table summarizing the effect of substitutions in position −2 (as defined, infra) of peptide R(Pmc)GHRGD(Y-OMe)RCR (SEQ ID NO. 1). […]
(§7) First copying reader's note: The part of each sequence from (Pmc) through C is underlined on the sheet, and the footnotes a,b cited in the head are not printed on it.
(§8) Where the first naming reader finds the target: head: α5β1 ELISA IC50 (μM)

[3] = target: T2, α5β1; assay: α5β1 ELISA IC50 (μM); remark: listed apart in the source
Source text: (§9) Table printed on a drawing sheet, FIG. 20
as §4, §5
(§10) The patent's description of the figure: FIG. 20 (SEQ ID NOS. 1 and 150-153, respectively) is a Table summarizing the effect of modifications at position −1 (as defined, infra) in peptide R(Pmc)GHRGD(Y-OMe)RCR. […]
(§11) First copying reader's note: Footnote marks a, b and c are printed but their texts are not on the sheet; the underlined part of each sequence (Pmc to C) marks the cyclic portion, and D in (DH) and (DY) is a small capital for the D-amino acid.
as §8

[4] = target: T1, αIIbβ3; assay: αIIbβ3 ELISA IC50 (μM); remark: listed apart in the source
Source text: as §9, §4, §1, §10, §11, §2

[5] = target: T1, αIIbβ3; assay: αIIbβ3 ELISA IC50 (μM); remark: listed apart in the source
Source text: as §3, §4, §1, §6, §7, §2

Ac-(Pmc)NPRGD(Y-OMe)RC-NH2 [compound 37]
IC50 [1]: 16 nM

R(Pmc)DHRGD(Y-OMe)RCR [compound 18]
IC50 [2]: 9200 nM

R(Pmc)G(DH)RGD(Y-OMe)RCR [compound 23]
IC50 [3]: 6800 nM

R(Pmc)G(DY)RGD(Y-OMe)RCR [compound 25]
IC50 [4]: 10 nM

R(Pmc)IHRGD(Y-OMe)RCR [compound 20]
IC50 [2]: 6400 nM

R(Pmc)NHRGD(Y-OMe)RCR [compound 21]
IC50 [5]: 90 nM

R(Pmc)SHRGD(Y-OMe)RCR [compound 19]
IC50 [5]: 120 nM

Like-named read-outs stand apart in the source and are kept apart here.
